In paper PMC7948460, “Volatile allosteric antagonists of mosquito odorant receptors inhibit human-host attraction” (The Journal of Biological Chemistry, 2020):
Like-named read-outs stand apart in the source and are kept apart here.

By UniProt entry, the sequences of proteins in these tests, tags left out. Where a name states a change or a piece, a line headed by the entry shows the natural chain unless it says otherwise.
UniProt Q7QCC7: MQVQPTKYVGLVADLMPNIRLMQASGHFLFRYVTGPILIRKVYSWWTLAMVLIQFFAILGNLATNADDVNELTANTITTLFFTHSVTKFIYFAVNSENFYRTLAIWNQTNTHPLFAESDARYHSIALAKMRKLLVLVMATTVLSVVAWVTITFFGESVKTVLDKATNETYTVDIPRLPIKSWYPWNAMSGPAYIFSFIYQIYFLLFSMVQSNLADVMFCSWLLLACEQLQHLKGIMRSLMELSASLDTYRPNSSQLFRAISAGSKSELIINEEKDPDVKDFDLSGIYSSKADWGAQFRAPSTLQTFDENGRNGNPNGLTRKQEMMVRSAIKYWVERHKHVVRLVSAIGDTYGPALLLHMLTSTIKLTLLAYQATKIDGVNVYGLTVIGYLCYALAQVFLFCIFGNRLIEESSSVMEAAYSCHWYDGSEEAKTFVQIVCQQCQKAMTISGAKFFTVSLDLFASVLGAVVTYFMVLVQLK

Tests used:
AgamORco [1] = target: T1, AgamORco (Anopheles gambiae, UniProt Q7QCC7); details: previously characterized ORco antagonist, cited from earlier work
AgamORco [2] = target: T1, AgamORco; assay: Insect cell-based (Bm5) AgamORco/Photina Ca2+ influx luminescence assay; details: for pIC50, inhibition of OA-dependent AgamORco channel activity: 100 μM ORcoRAM2 (OA); for OA-induced ORco response in the presence of the antagonist, relative to maximal (100%) response without antagonist: 100 μM antagonist; for Type of antagonism relative to ORcoRAM2 binding site: antagonist dose-response at 50 and 150 μM OA; for IC50: read-out: IC50 in binding competition assay
[3] = single compound 25 μM + 100 μM OA
[4] = single compound 50 μM + 100 μM OA
[5] = single compound 75 μM + 100 μM OA

| Molecule | pIC50, inhibition of AgamORco function (AgamORco [1]) | IC50 (AgamORco [1]; read-out: IC50, inhibition of AgamORco function) | pIC50, inhibition of OA-dependent AgamORco channel activity (AgamORco [2]) | pIC50 in binding competition assay (AgamORco [2]; 50 μM ORcoRAM2 (OA)) | OA-induced ORco response in the presence of the antagonist, relative to maximal (100%) response without antagonist (AgamORco [2]) | pIC50 in binding competition assay (AgamORco [2]; 150 μM ORcoRAM2 (OA)) | Type of antagonism relative to ORcoRAM2 binding site (AgamORco [2]) | IC50 (AgamORco [2]; 50 μM ORcoRAM2 (OA)) | IC50 (AgamORco [2]; 150 μM ORcoRAM2 (OA)) | % Inhibition (±SD) of OA-induced ORco luminescence response (AgamORco [2]; [3]) | % Inhibition (±SD) of OA-induced ORco luminescence response (AgamORco [2]; [4]) | % Inhibition (±SD) of OA-induced ORco luminescence response (AgamORco [2]; [5]) |
| --- | --- | --- | --- | --- | --- | --- | --- | --- | --- | --- | --- | --- |
| Isopropyl cinnamate | 4.379 ± 0.061 | 41.7 µM |  |  |  |  |  |  |  |  |  |  |
| C=CC(C)(CCC=C(C)C)OC(C)=O (stereo not drawn) [LA, Linalyl acetate] |  |  | 4.169 ± 0.1595 |  |  |  |  |  |  |  |  |  |
| Cumin alcohol |  |  | 4.082 ± 0.2848 | 4.072 ± 0.2314 | 52% | 4.109 ± 0.1781 | allosteric inhibitor | 84.7 µM | 77.8 µM | 22.08 ± 0.78% | 27.46 ± 2.90% | 39.41 ± 3.09% |
| Cc1ccc(C(C)C)cc1O [CRV, Carvacrol] |  |  |  |  | 45% |  | non-competitive (allosteric) antagonist |  |  | 31.75 ± 1.21% | 43.50 ± 2.51% | 47.20 ± 1.82% |
